{"source": "patent US8501754B2", "about": "“Quinazolinamide derivatives” (MERCK PATENT GmbH, priority 2007, dated 2013)", "biological_target": "Recombinant human HSP90a (Homo sapiens, UniProt P07900)", "experiment": "radioligand filter binding test ([3H]17AAG competition) for HSP90 inhibition", "conditions": "read-out: HSP90 inhibition IC50; competition with [3H]17AAG 0.08 μM, HSP90 1.5 μg/assay, 22° C., 30 min"}
{"compound": "COc1ccccc1N(C)C(=O)c1nc(N)nc2ccc(I)cc12", "values": [{"measurement": "IC50", "result": "10 to 1000", "unit": "nM"}]}
